# Columns and labels:
# [1] = biological target: WT M2β 15HPZ.GFP (human beta-cardiac heavy meromyosin with 15 heptads of S2, a leucine zipper and a C-terminal GFP tag) (UniProt P12883)
# E525K M2β 15HPZ.GFP = E525K M2β 15HPZ.GFP (UniProt P12883)
# [2] = biological target: WT M2β S1 (human beta-cardiac myosin subfragment 1) (human) (UniProt P12883)
# E525K M2β S1 (human) = E525K M2β S1 (human) (UniProt P12883)
substance,measurement,setting,value
actin (rabbit skeletal muscle) (from UniProt P68135 1-377) (natural protein),"K ATPase: actin concentration at half-maximal actin-activated ATPase (NADH coupled assay, 0.1 µM M2β, 5-60 µM actin, MOPS 20 buffer, 25°C)",[1],99.9 µM
same,"Percent stuck filaments in the in vitro motility assay (myosin on nitrocellulose, Alexa-555 phalloidin actin)",[1],27.8%
same,"K ATPase: actin concentration at half-maximal actin-activated ATPase (NADH coupled assay, 0.1 µM M2β, 5-60 µM actin, MOPS 20 buffer, 25°C)",E525K M2β 15HPZ.GFP,53.3 µM
same,"Percent stuck filaments in the in vitro motility assay (myosin on nitrocellulose, Alexa-555 phalloidin actin)",E525K M2β 15HPZ.GFP,34.8%
same,"K ATPase: actin concentration at half-maximal actin-activated ATPase (NADH coupled assay, 0.1 µM M2β, 5-60 µM actin, MOPS 20 buffer, 25°C)",[2],52.2 µM
same,"K ATPase: actin concentration at half-maximal actin-activated ATPase (NADH coupled assay, 0.1 µM M2β, 5-60 µM actin, MOPS 20 buffer, 25°C)",E525K M2β S1 (human),1.8 µM

# Source: paper PMC9691020
